Results published in US11046694B2, “Compounds and methods for treating bacterial infections” (Entasis Therapeutics, Inc., priority 2018, dated 2021).
Counter-ions that a name gives are not always drawn.

Tested on: P. aeruginosa clinical isolate (ARC6347, AmpC+, PoxB+)
Assay: In vivo efficacy in a neutropenic murine thigh model
Conditions: neutropenic CD-1 mice, subcutaneous, 8 doses 3 hours apart

| SMILES | Log(CFU/g) reduction in thigh | In vivo efficacy (stasis) in thigh model |
| --- | --- | --- |
| CN/C(=N\O)[C@@H]1c2c(cnn2C)[C@@H]2CN1C(=O)N2OS(=O)(=O)O (stereo in doubt) [Example 40, Sodium (4R*,8S*)-8-((Z)—N′-hydroxy-N-methylcarbamimidoyl)-1-methyl-6-oxo-4,8-dihydro-1H-4,7-methanopyrazolo[3,4-e][1,3]diazepin-5(6H)-yl hydrogen sulfate] | more than 2 Log(CFU/g) |  |
| Cn1ncc2c1[C@@H](CN)N1C[C@@H]2N(OS(=O)(=O)O)C1=O [Comparator 1, reference compound] |  | not active |
